Values joined by “and” are separate entries in the source; they are usually repeats but may differ in a detail not shown here. Equal entries are not always repeated. Only a part is listed here, and it is no random draw.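 Assay: single dose, 48 h. Readout: percent growth (0 = no net growth; negative = cell death). Active: <10.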 Active and inactive are the calls of the source.
Assays:
Assay in all cases: NCI-60 one-dose screen, 48 h (100 = growth as untreated, 0 = no growth, -100 = all killed)
Details in all cases: 10 µM unless noted
NCI-H23 lung = system: NCI-H23 lung
NCI-H226 lung = system: NCI-H226 lung
NCI-H322M lung = system: NCI-H322M lung
HOP-62 NSCLC = system: HOP-62 NSCLC
NCI-H460 lung = system: NCI-H460 lung
HOP-92 NSCLC = system: HOP-92 NSCLC
NCI-H522 lung = system: NCI-H522 lung
A549/ATCC NSCLC = system: A549/ATCC NSCLC
786-0 renal = system: 786-0 renal
COLO 205 colon = system: COLO 205 colon

Measured: growth

O=C(Oc1c(Cl)cc(Cl)cc1[N+](=O)[O-])c1cc([N+](=O)[O-])cc([N+](=O)[O-])c1
inactive: NCI-H23 lung 97.3% | NCI-H226 lung 97.4% | NCI-H322M lung 110% | HOP-62 NSCLC 103% | NCI-H460 lung 101% | HOP-92 NSCLC 81.9% | NCI-H522 lung 110% | A549/ATCC NSCLC 101% | 786-0 renal 103% | COLO 205 colon 120%

CC(Cc1ccccc1)N(CCCl)Cc1ccccc1 (centres undefined)
inactive: NCI-H23 lung 93.6% | NCI-H226 lung 78.9% | NCI-H322M lung 97.5% | HOP-62 NSCLC 96.8% | NCI-H460 lung 110% | HOP-92 NSCLC 99% | NCI-H522 lung 72.6% | A549/ATCC NSCLC 91.1% | 786-0 renal 97.4% | COLO 205 colon 110%

CC[C@H](C)[C@@H]1NC(=O)/C(=C(\C)O)C1=O
inactive: NCI-H23 lung 99.2% | NCI-H226 lung 91.2% | NCI-H322M lung 86.7% | HOP-62 NSCLC 94.7% | NCI-H460 lung 97.8% | HOP-92 NSCLC 149% | NCI-H522 lung 127% | A549/ATCC NSCLC 96.3% | 786-0 renal 95.6% | COLO 205 colon 122%

CC1CN1P(=O)(Nc1ncccn1)N1CC1C (centres undefined)
inactive: NCI-H23 lung 96.2% | NCI-H226 lung 105% | NCI-H322M lung 118% | HOP-62 NSCLC 100% | NCI-H460 lung 96.6% | HOP-92 NSCLC 94.4% | NCI-H522 lung 88.1% | A549/ATCC NSCLC 102% | 786-0 renal 108% | COLO 205 colon 111%

CCOC(=O)NC(C)(CCC(C)(NC(=O)OCC)P(=O)(O)Nc1ncccn1)P(=O)(O)Nc1ncccn1 (centres undefined)
inactive: NCI-H23 lung 101% [100 µM] | NCI-H226 lung 96.4% [100 µM] | NCI-H322M lung 98% [100 µM] | HOP-62 NSCLC 96.8% [100 µM] | NCI-H460 lung 110% [100 µM] | HOP-92 NSCLC 96.7% [100 µM] | NCI-H522 lung 105% [100 µM] | 786-0 renal 102% [100 µM] | COLO 205 colon 109% [100 µM]

ClCCN1CCn2cnc3ncnc-3c21
inactive: NCI-H23 lung 110% | NCI-H226 lung 103% | NCI-H322M lung 107% | HOP-62 NSCLC 106% | NCI-H460 lung 112% | HOP-92 NSCLC 99.2% | NCI-H522 lung 87.8% | A549/ATCC NSCLC 111% | 786-0 renal 98.9% | COLO 205 colon 114%

Cc1ccc(S(=O)(=O)CN(CCCl)CCCl)cc1
inactive: NCI-H23 lung 104% | NCI-H226 lung 107% | NCI-H322M lung 96.1% | HOP-62 NSCLC 98.9% | NCI-H460 lung 107% | HOP-92 NSCLC 107% | NCI-H522 lung 108% | A549/ATCC NSCLC 96% | 786-0 renal 107% | COLO 205 colon 106%

ClP1Nc2cncnc2N1 (centres undefined)
inactive: NCI-H23 lung 108% | NCI-H226 lung 110% | NCI-H322M lung 101% | HOP-62 NSCLC 109% | NCI-H460 lung 125% | HOP-92 NSCLC 102% | NCI-H522 lung 103% | 786-0 renal 110% | COLO 205 colon 121%

CC(Cl)CN(CC(C)Cl)C(=O)c1ccccc1 (centres undefined)
inactive: NCI-H23 lung 102% | NCI-H226 lung 93.2% | NCI-H322M lung 107% | HOP-62 NSCLC 106% | NCI-H460 lung 110% | HOP-92 NSCLC 81.1% | NCI-H522 lung 94.5% | A549/ATCC NSCLC 101% | 786-0 renal 107% | COLO 205 colon 103%

CCN(CCCl)/N=N/c1nc2nc[nH]c(=O)c2[nH]1
inactive: NCI-H23 lung 92.1% | NCI-H226 lung 105% | NCI-H322M lung 96.4% | HOP-62 NSCLC 89.2% | NCI-H460 lung 113% | HOP-92 NSCLC 97.8% | NCI-H522 lung 98.8% | A549/ATCC NSCLC 93.6% | 786-0 renal 102% | COLO 205 colon 114%

CCCC1OP(N)(=O)OCC1CC (centres undefined)
inactive: NCI-H23 lung 109% and 94.6% | NCI-H226 lung 99.9% and 92.7% | NCI-H322M lung 105% and 102% | HOP-62 NSCLC 110% and 109% | NCI-H460 lung 115% and 95.2% | HOP-92 NSCLC 95% and 84.1% | NCI-H522 lung 86.2% | A549/ATCC NSCLC 105% and 104% | 786-0 renal 113% and 97.6% | COLO 205 colon 105% and 108%

ClCCN1Cc2ccccc2C1
inactive: NCI-H23 lung 99% | NCI-H226 lung 87% | NCI-H322M lung 94.7% | HOP-62 NSCLC 102% | NCI-H460 lung 91.7% | HOP-92 NSCLC 80.1% | NCI-H522 lung 85% | A549/ATCC NSCLC 96.2% | 786-0 renal 103% | COLO 205 colon 96.5%

Cc1ccc(SP(=O)(CCl)N(CCCl)CCCl)cc1 (centres undefined)
inactive: NCI-H23 lung 104% | NCI-H226 lung 97.5% | NCI-H322M lung 105% | HOP-62 NSCLC 111% | NCI-H460 lung 103% | HOP-92 NSCLC 72.3% | NCI-H522 lung 71.8% | A549/ATCC NSCLC 92.7% | 786-0 renal 100% | COLO 205 colon 111%

O=C1OCCN1P(=O)(Cl)N1CCOC1=O
inactive: NCI-H23 lung 87.7% | NCI-H226 lung 104% | NCI-H322M lung 126% | HOP-62 NSCLC 107% | NCI-H460 lung 119% | HOP-92 NSCLC 79.4% | NCI-H522 lung 101% | A549/ATCC NSCLC 92.3% | 786-0 renal 97% | COLO 205 colon 107%

CCOP(=O)(Nc1ccccc1Cl)OCC
inactive: NCI-H23 lung 90.8% | NCI-H226 lung 94.4% | NCI-H322M lung 88.3% | HOP-62 NSCLC 90.1% | NCI-H460 lung 102% | HOP-92 NSCLC 76.1% | NCI-H522 lung 92.1% | A549/ATCC NSCLC 89.9% | 786-0 renal 104% | COLO 205 colon 101%

Clc1ccc(P(Cl)Cl)cc1
inactive: NCI-H23 lung 104% | NCI-H226 lung 108% | NCI-H322M lung 105% | HOP-62 NSCLC 111% | NCI-H460 lung 109% | HOP-92 NSCLC 64.6% | NCI-H522 lung 96.4% | A549/ATCC NSCLC 93.5% | 786-0 renal 109% | COLO 205 colon 118%

O=[As](O)(c1ccccc1Br)c1ccccc1Br
inactive: NCI-H23 lung 108% | NCI-H226 lung 101% | NCI-H322M lung 124% | HOP-62 NSCLC 96.5% | NCI-H460 lung 111% | HOP-92 NSCLC 86.6% | A549/ATCC NSCLC 104% | 786-0 renal 111% | COLO 205 colon 97.6%

O=C1OP(=O)(Cl)Oc2ccccc21 (centres undefined)
inactive: NCI-H23 lung 101% | NCI-H226 lung 101% | NCI-H322M lung 98.3% | HOP-62 NSCLC 93.5% | NCI-H460 lung 109% | HOP-92 NSCLC 84.1% | NCI-H522 lung 87% | A549/ATCC NSCLC 87.5% | 786-0 renal 102% | COLO 205 colon 119%

CC(=O)Nc1ccc([As](=O)(O)O)cc1
inactive: NCI-H23 lung 102% | NCI-H226 lung 84.3% | NCI-H322M lung 99.9% | HOP-62 NSCLC 93.9% | NCI-H460 lung 113% | HOP-92 NSCLC 104% | NCI-H522 lung 92.5% | A549/ATCC NSCLC 97.8% | 786-0 renal 110% | COLO 205 colon 124%

CCN(CCCl)Cc1ccccc1
inactive: NCI-H23 lung 107% | NCI-H226 lung 98.7% | NCI-H322M lung 98.8% | HOP-62 NSCLC 104% | NCI-H460 lung 106% | HOP-92 NSCLC 81.4% | NCI-H522 lung 90.1% | A549/ATCC NSCLC 94.8% | 786-0 renal 100% | COLO 205 colon 102%

CN1C(=O)N(C)P12(Cl)N(C)C(=O)N2C
inactive: NCI-H23 lung 102% | NCI-H226 lung 102% | NCI-H322M lung 113% | HOP-62 NSCLC 119% | NCI-H460 lung 105% | HOP-92 NSCLC 84% | NCI-H522 lung 96.4% | A549/ATCC NSCLC 95.1% | 786-0 renal 102% | COLO 205 colon 111%

O=C(OCCNCCCl)c1ccccc1
inactive: NCI-H23 lung 109% | NCI-H226 lung 97.4% | NCI-H322M lung 106% | HOP-62 NSCLC 108% | NCI-H460 lung 103% | HOP-92 NSCLC 101% | NCI-H522 lung 103% | A549/ATCC NSCLC 101% | 786-0 renal 102% | COLO 205 colon 123%

NC1=NCC(Br)CS1 (centres undefined)
inactive: NCI-H23 lung 94.6% | NCI-H226 lung 103% | NCI-H322M lung 106% | HOP-62 NSCLC 107% | NCI-H460 lung 102% | HOP-92 NSCLC 76.5% | NCI-H522 lung 92.6% | A549/ATCC NSCLC 90% | 786-0 renal 90.6% | COLO 205 colon 113%

COc1cc([N+](=O)[O-])cc([N+](=O)[O-])c1
inactive: NCI-H23 lung 99.9% | NCI-H226 lung 113% | NCI-H322M lung 139% | HOP-62 NSCLC 109% | NCI-H460 lung 111% | HOP-92 NSCLC 130% | NCI-H522 lung 85% | A549/ATCC NSCLC 100% | 786-0 renal 108% | COLO 205 colon 113%

ClCCNCc1ccccc1
inactive: NCI-H23 lung 102% | NCI-H226 lung 93.8% | NCI-H322M lung 99.4% | HOP-62 NSCLC 111% | NCI-H460 lung 102% | HOP-92 NSCLC 84.3% | NCI-H522 lung 110% | A549/ATCC NSCLC 109% | COLO 205 colon 115%

NP(=O)(N(CCCl)CCCl)N1CC1 (centres undefined)
inactive: NCI-H23 lung 96.3% | NCI-H226 lung 105% | NCI-H322M lung 99.2% | HOP-62 NSCLC 105% | NCI-H460 lung 110% | HOP-92 NSCLC 86.8% | NCI-H522 lung 76.4% | A549/ATCC NSCLC 98.1% | 786-0 renal 95.4% | COLO 205 colon 107%

CCN(CCCl)CC1OC(O)C(O)C1O (centres undefined)
inactive: NCI-H23 lung 116% | NCI-H226 lung 106% | NCI-H322M lung 111% | HOP-62 NSCLC 101% | NCI-H460 lung 103% | HOP-92 NSCLC 79.7% | A549/ATCC NSCLC 102% | 786-0 renal 105% | COLO 205 colon 128%

CCOP(=O)(Nc1ccccc1)OCC
inactive: NCI-H23 lung 105% | NCI-H226 lung 90.2% | NCI-H322M lung 103% | HOP-62 NSCLC 90.6% | NCI-H460 lung 107% | HOP-92 NSCLC 85.4% | A549/ATCC NSCLC 94% | 786-0 renal 105% | COLO 205 colon 112%

CC1(C)NC(C)(C)C(Br)C(=O)C1Br (centres undefined)
inactive: NCI-H23 lung 99.7% | NCI-H226 lung 108% | NCI-H322M lung 143% | HOP-62 NSCLC 105% | NCI-H460 lung 115% | HOP-92 NSCLC 107% | NCI-H522 lung 95.8% | A549/ATCC NSCLC 93.4% | 786-0 renal 102% | COLO 205 colon 110%

O=[As]1(O)c2ccccc2-c2ccccc21
inactive: NCI-H23 lung 88.9% | NCI-H226 lung 94.2% | NCI-H322M lung 134% | HOP-62 NSCLC 78.7% | NCI-H460 lung 105% | HOP-92 NSCLC 108% | NCI-H522 lung 97.7% | A549/ATCC NSCLC 93.9% | 786-0 renal 82.4% | COLO 205 colon 126%
